## Ab-14 light chain CDR variants: yeast mating affinities

Data: MIT Lincoln Laboratory AlphaSeq set, Engelhart et al. 2022, doi:10.1038/s41597-022-01779-4, as distributed in FLAb.

The target is the same throughout: PDVDLGDISGINAS, from the HR2 region of SARS-CoV-2 spike.

Ab-14 is the parent antibody, in scFv form: VH, then three GGGGS repeats, then VL. The heavy chain is unchanged in all variants.
VH: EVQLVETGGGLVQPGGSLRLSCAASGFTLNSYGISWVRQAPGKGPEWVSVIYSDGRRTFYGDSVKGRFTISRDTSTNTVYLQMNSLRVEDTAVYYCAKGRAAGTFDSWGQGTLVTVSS
VL: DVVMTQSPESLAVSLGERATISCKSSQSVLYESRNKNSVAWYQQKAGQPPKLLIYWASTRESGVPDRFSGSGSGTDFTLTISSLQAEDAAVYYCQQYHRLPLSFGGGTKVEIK

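Phage display of a naive human antibody library on the peptide gave the parent. Library AAYL50 holds single substitutions and randomly drawn double and triple substitutions in the CDRs. The scFvs were displayed on barcoded MATa yeast, the peptide on MATalpha yeast. Pairs that bind mate more often; barcode pairs of the diploids are counted by sequencing. Each replicate has its own calibration line, from reference interactions of the BCL2 family. There are three technical replicates.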

Variants are written as CDR1, CDR2 and CDR3 of the light chain (limits as in the source). Parent: KSSQSVLYESRNKNSVA, WASTRES, QQYHRLPLS. All variants listed here change R60 of the VL, counted from its first residue. Kd is apparent (estimated from mating counts) and averaged on the log scale over replicates with a signal. Smaller is tighter. An entry "not detected" has no value in the source: the pair was not observed among the diploids in any replicate. This suggests poor binding but is not conclusive. Empty control strains, which show no peptide, gave a signal in 18% of pairings with library AAYL50; the median was 15 µM and 95% of these signals were weaker than 970 nM. No background was subtracted.

| CDR-L1 | CDR-L2 | CDR-L3 | apparent Kd | seen in |
|---|---|---|---|---|
| KSSQSVLYLSRNKNSVA | WASTIER | QQYHRLPLS | not detected | 0 of 3 |
| KSSFSVLYEHRNKNSVA | WASTFES | QQYHRLPLS | 4.6 µM | 2 of 3 |
| KCYQSVLYESRNKNSVA | WASTFES | QQYHRLPLS | 2.1 µM | 2 of 3 |
| KSSQSVLYEARNKNSVA | WASSLES | QQYHRLPLS | 160 nM | 3 of 3 |
| KSSQSVLYESRNFNSVA | WASTGES | QQYHRLPLS | 2.5 µM | 1 of 3 |
| KSSQSVLYESRNKNSVA | WASTHES | QQYHRKCLS | not detected | 0 of 3 |
| KSSQSVGYESRNKNSVA | WASTMES | QQYHRLPLG | not detected | 0 of 3 |
| KSSQSVLYHSRNKNSVA | WASTFES | QQYHRLPLS | not detected | 0 of 3 |
| KSSQSVLYESRNSNSVA | WASTPES | QIYHRLPLS | 21 µM | 1 of 3 |
| KSSQYVLYESRNKNSVA | WASTCEY | QQYHRLPLS | 5.1 µM | 2 of 3 |
| KSSQSVLYESRNKNSVA | WASTHES | QQTHRLPLS | 48 µM | 2 of 3 |
| KSSQSVLYESRNKNCVA | WASTPES | QEYHRLPLS | not detected | 0 of 3 |
| KSSQSVLYEMRNKNSVA | WASTAES | QQYHRLFLS | 33 nM | 3 of 3 |
| NSSQSVLYESRNKNSVA | WASTVES | QLYHRLPLS | 40 µM | 1 of 3 |
| KSSQSGLYESRNKNSVA | WASTDES | QQYHYLPLS | not detected | 0 of 3 |
| KSSQSVLYESRNKNFVA | WASTWES | QQYHRLPQS | not detected | 0 of 3 |
| KSSQSVLYESRNKNSNA | WASTYES | QQYHRLGLS | not detected | 0 of 3 |
| KSSQSDLYESRNKNSVA | WAQTMES | QQYHRLPLS | 47 µM | 2 of 3 |
| HSSQSVLYESRNKNSNA | WASTPES | QQYHRLPLS | not detected | 0 of 3 |
| KSDQSVLYESRNKNSVA | WASTCES | QQYIRLPLS | 160 nM | 3 of 3 |
| KSSQSVLYETRNKNSVA | WASTCES | QEYHRLPLS | 3.8 µM | 3 of 3 |
| KSSQSVLYESRNANSVA | WASTYES | QQYHMLPLS | 5.3 nM | 3 of 3 |
| KSVQSVLYASRNKNSVA | WASTQES | QQYHRLPLS | not detected | 0 of 3 |
| KSNQSVLYESRNKNKVA | WASTFES | QQYHRLPLS | not detected | 0 of 3 |
| KSSQSVLYESRNKNSVA | GASDEES | QQYHRLPLS | 2.0 µM | 1 of 3 |
| KSSQSVLYVSRNKNSVA | AASTKES | QQYHRLPLS | 2.0 nM | 3 of 3 |
| KSSQSVLYESINKNSVA | WASTCES | QNYHRLPLS | 40 µM | 1 of 3 |
| KSSQSVIYESRNKNSVA | WASMMES | QQYHRLPLS | 81 µM | 2 of 3 |
| KSSQSVLYESDNKNSVA | WASTYES | QQYHRLPNS | not detected | 0 of 3 |
| KSSQSVLYESRNKNSHA | WASTMES | QMYHRLPLS | 110 µM | 1 of 3 |
| KSEQSVLYMSRNKNSVA | WASTHES | QQYHRLPLS | 50 nM | 3 of 3 |
| KSSQSVLYESRNKNSVA | DASTGES | QQYHRLPLS | not detected | 0 of 3 |
| KSSQSVLYESRNKDSVA | WASTWES | QQYHRLPHS | 93 µM | 1 of 3 |
| KSNQSVLYESRNKNSVA | WPSTHES | QQYHRLPLS | not detected | 0 of 3 |
| KSSQSVLYESRNKNSVA | WACTAES | QQYHRLPLK | 2.2 µM | 1 of 3 |
| KSSQVVLYESRNCNSVA | WASTCES | QQYHRLPLS | 61 µM | 2 of 3 |
| KSSQVVLYESRNKNTVA | WASTEES | QQYHRLPLS | not detected | 0 of 3 |
| KSSQSVLYESRNKNSVA | WASHVES | QQYHRLPAS | not detected | 0 of 3 |
| KSSQSVLYESRNKNTVA | WQSTKES | QQYHRLPLS | not detected | 0 of 3 |
| VSSQSVLYESRNKNSVA | WASTWES | QQYHRLPLS | not detected | 0 of 3 |
| KSSQSVLYESRNKNSVA | WASTFES | QQYHRLPLS | 30 µM | 1 of 3 |
| KSSQSVLYESRNKNSVA | WASTKES | QQYHRLWLS | not detected | 0 of 3 |
| KSSQSVLYESRNKNSGA | WAETMES | QQYHRLPLS | not detected | 0 of 3 |
| KSSQSVLYESRNKNSVA | WASTHES | QQYATLPLS | 310 nM | 3 of 3 |
| KSSQSVLRESRNKNSVA | WASTCES | QQYHRLPLM | 3.5 µM | 1 of 3 |
| KSPQSVLYESCNKNSVA | WASTVES | QQYHRLPLS | 4.4 µM | 1 of 3 |
| KSSQSVLYDSRNKNSTA | WASTYES | QQYHRLPLS | 20 µM | 2 of 3 |
| KSSQSVLYESTNKNSVA | WASTCES | QQYHRLPLD | 57 nM | 3 of 3 |
| KSSQWVLYESRNKNSVA | WASTIES | QQYHRLPLS | 24 µM | 1 of 3 |
| KSSQSVLYESRNKNSVN | WASTGED | QQYHRLPLS | not detected | 0 of 3 |
| KSSQSVLYESRNKSSGA | WASTPES | QQYHRLPLS | not detected | 0 of 3 |
| KSSVSVLYESRNKNSVA | WASTEES | QPYHRLPLS | not detected | 0 of 3 |
| KSSQSVLYESRNKNSVA | WCYTQES | QQYHRLPLS | not detected | 0 of 3 |
| KSSQSALYESRNKNSVA | QASTHES | QQYHRLPLS | 27 µM | 1 of 3 |
| KSSQSVLYESRNKNSVA | WASTLES | QFIHRLPLS | 7.7 µM | 1 of 3 |
| KSSQEVLYESRNKNSVA | WASTMES | QQYHRPPLS | not detected | 0 of 3 |
| KSSQSVLYESWNKNSVA | WASDSES | QQYHRLPLS | 1.9 µM | 1 of 3 |
| KSSQSVCYESRNKNSVA | WASWDES | QQYHRLPLS | not detected | 0 of 3 |
| KSSQSMLYESRNKNSVK | WASTNES | QQYHRLPLS | 39 µM | 2 of 3 |
| KSSQSVLYESRNKNSVA | WASTEES | QQYHRLPLS | 2.8 µM | 1 of 3 |
| KSSQSVLYESRNKNSVA | WASTTSS | QFYHRLPLS | 7.4 µM | 3 of 3 |
| KSSQSVLYESRNKNSVA | WASTDES | QQYHRLRLK | 390 µM | 2 of 3 |
| SSSQSVLYESRNKNSVA | WASTPES | QQYHRLPLS | 550 nM | 3 of 3 |
| KSSQSVLYEARNKNSVA | WASTSES | PQYHRLPLS | not detected | 0 of 3 |
| KSSQSVLYESWNKNSVA | WASTMES | QQYHPLPLS | not detected | 0 of 3 |
| KSSQTVLYESRNKNDVA | WASTCES | QQYHRLPLS | 88 µM | 3 of 3 |
| KSSQGVLYESRNKNSVA | WAETHES | QQYHRLPLS | 260 nM | 1 of 3 |

Top 10 of the variants detected in all replicates, tightest first:

CDR-L1,CDR-L2,CDR-L3,apparent Kd,seen in
KSSQSVLYVSRNKNSVA,AASTKES,QQYHRLPLS,2.0 nM,3 of 3
KSSQSVLYESRNANSVA,WASTYES,QQYHMLPLS,5.3 nM,3 of 3
KSSQSVLYEMRNKNSVA,WASTAES,QQYHRLFLS,33 nM,3 of 3
KSEQSVLYMSRNKNSVA,WASTHES,QQYHRLPLS,50 nM,3 of 3
KSSQSVLYESTNKNSVA,WASTCES,QQYHRLPLD,57 nM,3 of 3
KSSQSVLYEARNKNSVA,WASSLES,QQYHRLPLS,160 nM,3 of 3
KSDQSVLYESRNKNSVA,WASTCES,QQYIRLPLS,160 nM,3 of 3
KSSQSVLYESRNKNSVA,WASTHES,QQYATLPLS,310 nM,3 of 3
SSSQSVLYESRNKNSVA,WASTPES,QQYHRLPLS,550 nM,3 of 3
KSSQSVLYETRNKNSVA,WASTCES,QEYHRLPLS,3.8 µM,3 of 3